Reference: publication PMC4432619

Biological target: FMNL2N(S171DD) (residues 1–379) (human) (UniProt Q96PY5)
Assay: ITC; GppNHp-loaded GTPase at 500 μM injected from the syringe into 50 μM FMNL in the cell; 20 mM Tris/HCl pH 8, 150 mM NaCl, 5 mM MgCl2, 1 mM DTE, 298 K; MicroCal iTC200

Row | pKd | dH | stoichiometry N | Substance
1 | 6.05 | -2.35 kcal/mol | 1.01 | Rac1(A95E,E131K,K132N) (1–177) (from UniProt P63000 1-177) (domain or fragment)
2 | 4.97 | -0.63 kcal/mol | 1.07 | Rac1(E131K,K132N) (1–177) (from UniProt P63000 1-177) (domain or fragment)

pKd: −log10 of the molar value.
